Values quoted from earlier work in patent publication US10610591B2, “Light responsive quantum dot drug delivery system” (Nanoco Technologies Ltd., priority 2017, dated 2020).
Some compounds may have been tested in ways that are not shown here.

Conditions: octanol/water; cited from earlier work

**Q.** With `CCC(=O)N(c1ccccc1)C1CCN(CCc2ccccc2)CC1` as the compound, how does the log P (log Po/w, log Poct/wat, log Pexp) read?
**A.** 4.05
